Results: publication PMC10386196, “A First-Class Degrader Candidate Targeting Both KRAS G12D and G12V Mediated by CANDDY Technology Independent of Ubiquitination” (Molecules, 2023)

Amino acid sequences for entries named in this document (tags omitted). A change or cut given only in a name is not applied to a line headed by its entry.
UniProt P28074: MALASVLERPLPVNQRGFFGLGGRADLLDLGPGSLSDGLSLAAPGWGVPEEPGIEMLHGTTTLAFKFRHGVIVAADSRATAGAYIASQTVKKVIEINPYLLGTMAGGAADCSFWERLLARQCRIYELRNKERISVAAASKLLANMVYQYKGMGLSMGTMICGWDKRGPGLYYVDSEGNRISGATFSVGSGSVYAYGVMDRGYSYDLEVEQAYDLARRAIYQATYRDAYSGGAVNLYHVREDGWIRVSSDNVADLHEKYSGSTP

Target: proteasome β5 (Homo sapiens, UniProt P28074)
Assay: Inhibition of proteasome β5 (chymotrypsin-like) activity, Suc-LLVY-AMC substrate
Type: biochemical
Details: SE in parentheses, n = 2
Method: Reaction time (min) Reaction time (min)
Figure S1. Proteasome Inhibitors Modified as Degradation Tags, Related to Figures 2
(A) Chymotrypsin-like (β5) , trypsin-like (β2) and caspase-like (β1) activities of the pr oteasome were monitor ed by Suc- LLVY-
AMC (β5 substrate) , Bz- VGR-AMC (β2 substr ate) and Z -LLE-AMC (β1 substrate), respectively. AMC fluorescence was
m onitor ed by a plate reader with excitation and emission filter s of 360 nm and 460 nm, respectively (DMSO, 30 min = 1) […]

IC50: 7.2 nM
Structure (SMILES): CC(C)C[C@H](NC(=O)CNC(=O)c1cc(Cl)ccc1Cl)B(O)O [MLN2238, reference compound]
